Experiment [1] has as its target T1, human EPN1 expressed by human cell lines (human, UniProt Q9Y6I3 1-576).
T1 construct: Endogenous EPN1 of human tumour and normal cell lines, stained on live cells or on fixed and permeabilised cells, or immunoprecipitated; The cell lines were not engineered to express it; also called surface EPN1; huEPN1
T1 sequence: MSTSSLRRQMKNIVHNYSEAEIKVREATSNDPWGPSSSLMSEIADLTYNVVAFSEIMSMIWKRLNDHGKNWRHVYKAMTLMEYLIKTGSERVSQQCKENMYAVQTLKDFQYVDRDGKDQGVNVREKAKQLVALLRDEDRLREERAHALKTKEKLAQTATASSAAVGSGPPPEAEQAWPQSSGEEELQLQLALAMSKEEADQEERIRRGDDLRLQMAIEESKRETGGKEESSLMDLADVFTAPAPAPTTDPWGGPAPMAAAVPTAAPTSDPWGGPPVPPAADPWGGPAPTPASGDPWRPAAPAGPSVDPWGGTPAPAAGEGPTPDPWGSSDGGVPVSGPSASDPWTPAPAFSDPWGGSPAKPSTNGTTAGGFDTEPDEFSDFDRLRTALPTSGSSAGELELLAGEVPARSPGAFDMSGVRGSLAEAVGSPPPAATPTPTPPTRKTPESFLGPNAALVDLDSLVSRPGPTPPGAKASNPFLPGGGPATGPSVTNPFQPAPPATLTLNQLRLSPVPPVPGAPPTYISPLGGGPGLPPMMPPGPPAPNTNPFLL
The experiment is described as follows: flow cytometry, P29 Clone1 cells (human tumor line). Background: In flow cytometry, cells or beads pass a laser one at a time.

Experiment [2] has as its target T1, human EPN1 expressed by human cell lines. As to the kind of experiment: flow cytometry, PC3 cells (human tumor line).
Experiment [3] shares this target. As to the kind of experiment: flow cytometry, MDAMB231 cells (human tumor line).
The target is the same in experiment [4]. The experiment is described as follows: flow cytometry, WM1366 cells (human tumor line).
For experiment [5], the target named is T2, EPN3 on the CDI HuProt native array (human, UniProt Q9H201 1-632, limits assumed).
T2 sequence (looked up): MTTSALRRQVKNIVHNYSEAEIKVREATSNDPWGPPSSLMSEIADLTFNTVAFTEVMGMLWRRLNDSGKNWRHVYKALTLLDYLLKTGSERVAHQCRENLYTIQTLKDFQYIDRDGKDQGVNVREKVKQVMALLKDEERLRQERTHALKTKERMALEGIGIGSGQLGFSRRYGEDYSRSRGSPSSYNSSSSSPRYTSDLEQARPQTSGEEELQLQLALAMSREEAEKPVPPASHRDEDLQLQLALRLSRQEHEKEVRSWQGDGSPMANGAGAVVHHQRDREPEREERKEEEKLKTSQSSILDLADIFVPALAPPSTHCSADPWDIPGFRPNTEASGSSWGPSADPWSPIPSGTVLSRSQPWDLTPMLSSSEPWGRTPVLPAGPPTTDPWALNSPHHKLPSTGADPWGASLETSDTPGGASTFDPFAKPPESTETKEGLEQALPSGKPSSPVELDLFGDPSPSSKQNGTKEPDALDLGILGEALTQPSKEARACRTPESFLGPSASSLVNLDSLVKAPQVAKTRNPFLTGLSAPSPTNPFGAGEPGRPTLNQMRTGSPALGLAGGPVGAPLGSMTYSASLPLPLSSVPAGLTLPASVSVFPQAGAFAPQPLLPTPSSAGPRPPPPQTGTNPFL
As to the kind of experiment: CDI HuProt native protein microarray (High-Spec cross-reactivity assay). How it is done: IMM20059 was then screened using the CDI Human Proteome (HuProt) microarry-based High-Spec antibody cross-reactivity assay. In the assay, proteins corresponding to approximately 80% of the human proteome were spotted in native format onto microarrays and used to probe specificity of IMM20059. More specifically, IMM20059 (1 μg/mL) was incubated overnight at 4° C. against the native CDI HuProt array, with EPN1 (Origene, cat #TP307099) added to the array as an additional control. Slides were washed and IMM20059 binding was detected with an Alexa-647 conjugated anti-H+L secondary antibody. Non-specific hits that were bound by the secondary were eliminated from any analysis. Selective binding to target proteins were analyzed by a combination of overall signal intensity, Z-score to determine reproducibility of binding to replicates on each slide, and S-score to determine difference in selectivity versus possible targets. An S-score >3 between the top and second-ranked hits is considered as indicative of specificity for the top hit.

For experiment [6], the target named is T3, recombinant EPN1 (Origene, cat #TP307099) (human, UniProt Q9Y6I3 1-576).
T3 construct: Bought protein; also called Epsin-1; Epsin 1
T3 sequence: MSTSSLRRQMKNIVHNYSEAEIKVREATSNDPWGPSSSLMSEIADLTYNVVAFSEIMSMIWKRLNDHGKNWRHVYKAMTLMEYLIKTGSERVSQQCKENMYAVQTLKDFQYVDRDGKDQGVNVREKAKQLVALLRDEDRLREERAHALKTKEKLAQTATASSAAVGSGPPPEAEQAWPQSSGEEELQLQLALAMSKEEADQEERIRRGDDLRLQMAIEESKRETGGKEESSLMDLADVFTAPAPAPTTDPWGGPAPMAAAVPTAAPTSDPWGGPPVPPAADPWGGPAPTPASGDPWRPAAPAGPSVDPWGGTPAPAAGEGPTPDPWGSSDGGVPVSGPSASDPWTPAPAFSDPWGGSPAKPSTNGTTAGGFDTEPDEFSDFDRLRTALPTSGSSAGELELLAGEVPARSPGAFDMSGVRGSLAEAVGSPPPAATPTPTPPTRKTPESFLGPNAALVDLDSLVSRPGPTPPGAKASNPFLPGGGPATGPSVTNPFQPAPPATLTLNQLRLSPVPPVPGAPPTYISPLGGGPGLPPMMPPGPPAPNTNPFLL
The experiment is described as follows: SPR, IMM20059 captured on CM5/Protein A, 25° C. As to the method: IMM20059 was captured at four different surface densities (500, 1000, 2600, and 2800 RU) on a CM5/Protein A sensor chip using 10 mM HEPES, pH 7.4, 150 mM NaCl, 0.005% Tween-20, 0.2 mg/mL BSA as a running buffer. EPN1 (Origene Cat #TP307099) or EPN2 (Origene Cat #TP310899) were diluted in running buffer to both 200 nM and 20 nM and analyzed for the ability to bind to the immobilized IMM20059 at 25° C. […] However, as detailed in Table 4, the observed off-rates for binding to EPN1 were dependent upon IMM20059 surface density, with the off-rate on the 500 RU surface being 2.4-times faster than the off-rate measured on the 2800 RU density surface.
A general note: In SPR one partner is held on a chip, and binding of the other changes the refractive index at the surface.

Experiment [7] addresses T3, recombinant EPN1 (Origene, cat …). The experiment is described as follows: SPR, IMM20059 captured at about 50 RU on C1/Protein A, 25° C. As to the method: Binding of EPN1 to IMM20059 was evaluated when antibody was captured, in standard running buffer, onto the surface of a C1/Protein A sensor chip at a density of approximately 50 RU. The combination of the carboxymethylated, matrix-free surface of the C1 chip and the low density of IMM20059 is predicted to limit avid binding.

B1: IMM20059 (antibody, human IgG1, kappa, V domains shown)
VH: EVQLVESGGGLVQPGGSLRLSCAASGFTFSIHSLNWVRQAPGKGLEWVSYISSNSTTIYYADSVKGRFTISRDNAKDSLYLQMNSLRDEDTAVYYCARDYYCTGGTCFFLPDLWGRGALVTVSS
VL: EIVLTQSPATLSLSPGERATLSCRASQNISNFLAWYQHKPGQAPRLLIYDASIRATGIPARFSGSGSGTDFSLTISSLEPEDFAVYFCQQRYNWLTFGGGTKVEIKR
B1: the “MFI (fold mean fluorescence index above isotype control)” value is 21 fold in experiment [1], 7 fold in experiment [2], 4 fold in experiment [3] and 17 fold in experiment [4]. In experiment [5], the binding result is “no binding (tested: 1 µg/mL IMM20059)”. Further, the “off-rate ratio (500 RU surface against 2800 RU surface)” value in experiment [6] worked out at 2.4 fold. In addition, the “fold decrease in measured intrinsic binding affinity (C1 chip against CM5 chip)” value in experiment [7] is about 10 fold.

The values above are taken from patent publication US20220002435A1 (IMMUNOME, published 2022).
